## Ab-14 heavy chain CDR variants: yeast mating affinities

Source: Engelhart et al. 2022 (doi:10.1038/s41597-022-01779-4), MIT Lincoln Laboratory and A-Alpha Bio; data file from the FLAb repository.

Target: peptide PDVDLGDISGINAS, taken from heptad repeat 2 (HR2) of SARS-CoV-2 spike.

The variants keep the light chain, the linker and the frameworks of Ab-14 (scFv order VH, a 15-residue (Gly4Ser)3 linker, VL).
VH: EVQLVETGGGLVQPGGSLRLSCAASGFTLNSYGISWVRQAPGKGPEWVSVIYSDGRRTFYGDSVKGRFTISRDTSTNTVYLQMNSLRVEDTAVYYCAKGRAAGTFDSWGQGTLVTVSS
VL: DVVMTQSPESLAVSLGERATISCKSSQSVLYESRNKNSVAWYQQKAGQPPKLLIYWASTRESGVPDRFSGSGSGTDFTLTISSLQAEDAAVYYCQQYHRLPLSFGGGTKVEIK

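AAYL49 was designed without a model: most single CDR substitutions and a random sample of double and triple ones. AlphaSeq pools MATa yeast showing the antibodies with MATalpha yeast showing the peptide. The frequency of each diploid, read from paired DNA barcodes, reflects how well the two displayed proteins bind. The ratio of observed to expected reads was calibrated, replicate by replicate, on BCL2-family standards whose Kd was known from biolayer interferometry. There are three technical replicates.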

Substitutions are numbered in sequence along the VH above, starting at 1 (not Kabat).
Values are log10 of the apparent Kd in nM; lower means stronger binding.
Replicates are averaged; those with no signal do not enter the mean.
A pair that was not seen in that replicate is written "nd"; this usually means weak binding, but a binder can also be missed.
Empty control strains, which show no peptide, gave a signal in 15% of pairings with library AAYL49; the median was 4.06 and 95% of these signals were weaker than 2.83. No background was subtracted. The control count says in how many pairings with the empty strains this scFv gave a signal, with their mean in brackets.
For reference, the parent read 0.65 as the reference entry and 4.11 (one replicate of three) as a member of this library.

changes	replicates, log10 nM	mean, log10 nM	empty controls
G33R/K65E/G99P	4.49 nd nd	4.49	2 of 9 (4.35)
T28L/G33N/G103K	nd nd nd	nd	2 of 9 (3.38)
R56D/F105N	0.95 1.40 1.17	1.18	0 of 9
Y52N/S63K/T104D	nd 3.00 nd	3.00	0 of 9
L29V/N30E/S35T	nd nd nd	nd	1 of 9 (3.55)
V50Y/R56C/F105M	nd 3.99 nd	3.99	0 of 9
S53N/G61K/A102M	nd nd nd	nd	1 of 9 (3.03)
G26W/T28M/F105W	nd nd nd	nd	0 of 9
S35K/G103Y/F105Q	nd 3.20 nd	3.20	1 of 9 (2.65)
G99D/S107G	nd nd nd	nd	0 of 9
S35Y/D106F	nd nd 4.25	4.25	0 of 9
T28A/S63P/D106F	1.93 1.77 1.84	1.85	3 of 9 (4.58)
T28L/G33Y/Y60V	nd 3.15 nd	3.15	1 of 9 (4.31)
F27A/Y32D/R100M	nd nd nd	nd	2 of 9 (4.07)
T28F/D62C/R100D	nd nd nd	nd	0 of 9
S31A/R56K/R57E	nd 5.10 nd	5.10	3 of 9 (3.55)
S53I/A101G/A102Q	nd nd nd	nd	0 of 9
D54E/G103M/S107D	nd nd nd	nd	0 of 9
I51M/F59V/G99L	nd nd nd	nd	0 of 9
F59I/S63Q/A101E	0.70 0.94 1.16	0.94	1 of 9 (4.50)
G26L/I51N/T58W	nd 3.85 nd	3.85	0 of 9
Y32P/G103P/F105P	nd nd nd	nd	1 of 9 (3.05)
T28D/T58P/G103W	nd nd nd	nd	0 of 9
Y32Q/I34N/T58F	nd 3.82 nd	3.82	2 of 9 (4.00)
S53L/A101N/G103W	nd nd nd	nd	2 of 9 (3.68)
T28D/S53L/R100T	4.76 3.28 5.72	4.59	2 of 9 (3.49)
G26I/T58L	nd nd nd	nd	0 of 9
Y32V/V50T/T58Y	nd nd nd	nd	0 of 9
R57W/T58Q/A102E	nd nd nd	nd	0 of 9
Y60T/R100W/A102D	nd 3.95 nd	3.95	0 of 9
T58R/A101I	1.38 1.45 1.39	1.41	3 of 9 (4.68)
Y32L/F59C/G103I	nd 2.99 5.77	4.38	1 of 9 (5.15)
G26W/S35V/S63R	nd nd nd	nd	0 of 9
Y60K/G61D/A101N	nd nd nd	nd	1 of 9 (4.03)
T58D/F105L/D106A	nd 3.24 nd	3.24	2 of 9 (4.01)
D62I/V64P	nd 3.24 3.59	3.41	1 of 9 (2.94)
Y60L/D106M	2.05 3.51 nd	2.78	0 of 9

Repeated from above, the 3 best binders with a signal in all replicates:

changes	replicates, log10 nM	mean, log10 nM	empty controls
F59I/S63Q/A101E	0.70 0.94 1.16	0.94	1 of 9 (4.50)
R56D/F105N	0.95 1.40 1.17	1.18	0 of 9
T58R/A101I	1.38 1.45 1.39	1.41	3 of 9 (4.68)